{"source": "patent US10736859B2", "about": "“Eutectic formulations of cyclobenzaprine hydrochloride and amitriptyline hydrochloride” (Tonix Pharma Holdings Limited, priority 2013, dated 2020)", "experiment": "DSC, FT-IR/ATR and XRPD compatibility of Cyclobenzaprine HCl with additional excipients, mixed (A) and milled (B) 1:1 mixtures (Example 2)", "format": "physicochemical", "conditions": "for Interactions between Cyclobenzaprine HCl and excipients, Mixture 1:1 (mixed): mixture A, mechanical mixing only; for Interactions between Cyclobenzaprine HCl and excipients, Mixture 1:1 (mixed) / Interactions between Cyclobenzaprine HCl and excipients, Mixture 1:1 (milled): DSC; for Interactions between Cyclobenzaprine HCl and excipients, Mixture 1:1 (milled): mixture B, ground in agate mortar", "procedure": "As described above, thermal analytical techniques were further used to assess the compatibility of a drug product (tablet) containing Cyclobenzaprine HCl (API). The compatibility assessment was carried out between the API and additional excipients in a 1:1 ratio. The 1:1 API-excipient mixtures were formed in two different ways: first, by mixing only, and second, by strong milling in an agate mortar. The thermal behavior recorded in the two different mixtures were compared with those of the single components. On the basis of thermal events recorded for each component and for the mixtures, the analyses were carried out by investigating the meanings of the peaks recorded by differential scanning calorimetry (DSC) in mixtures between the API and the excipients. Furthermore, in order to define the nature of the interaction, the Fourier Transformate Infra Red Spectroscopy with Total Attenuated Reflectance (FT-IR/ATR) and X-ray powder diffraction (XRPD) of some samples (API, excipient, and mixed and milled mixtures) was carried out and compared.\nAliquots of API and each excipient were weighed in a ratio of 1:1 and ground in an agate mortar. Then, the homogeneous mixtures were analyzed. These sample mixtures were labeled “B”, while the mechanical-only mixtures were labeled “A.”\nThe DSC heating curves were obtained by TA 821 DSC Mettler instrument under the following conditions: • Heating rate: 10° C./min • Ambient: Nitrogen 30 mL/min • Sample holder: normal open aluminum pan • Temperature range: from 25° C. to 250° C. • Instrument calibration: Indium sample purity 99.999% Fourier Transformate Infra Red Spectroscopy with Total Attenuated Reflectance (FT-IR/ATR)\nThe FT-IR spectra were collected with a Perkin Elmer spectrum Two instrument with air as background and 4 cm^−1 resolution.\nX-ray powder diffraction (XRPD) tests were performed with the ULTIMA IV instrument (Rigaku), laying the sample on a static sample holder. The X-ray focusing slit has a variable width, interlocked with the q value. The X-ray tube has a Copper target, with a current intensity of 40 mA and a voltage of 40 kV. Radiation was generated by the Cockcroft-Walton method, and was constituted by Kα1 (1.540562 Å) and Kα2 (1.544398 Å). The analytical conditions were: • Fixed Time; sampling width 0.02 deg, scanning rate 1.3 s/step, 2 q range 3.35 deg and sample holder; amorphous glass equiangular 9200/2G, 0.2 mm deep. The sample was pressed with a glass plate.", "key": {"[1]": {"conditions": "listed as Disodium Glycine carbonate"}}}
{"substance": "Disodium Glycine Carbonate [Di Sodium Glycine carbonate]", "values": [{"measurement": "Chemical acid-base reaction by FT-IR/ATR", "setting": "mixture A 1:1 with Cyclobenzaprine HCl, room temperature, chlorohydrate band 3000-2000 cm-1", "value": "no chemical acid-basis reaction occurred"}, {"measurement": "Interactions between Cyclobenzaprine HCl and excipients, Mixture 1:1 (mixed)", "value": "Physical"}, {"measurement": "Interactions between Cyclobenzaprine HCl and excipients, Mixture 1:1 (mixed)", "setting": "[1]", "value": "physical complex melting at a lower temperature"}, {"measurement": "Interactions between Cyclobenzaprine HCl and excipients, Mixture 1:1 (milled)", "value": "Physical"}, {"measurement": "Interactions between Cyclobenzaprine HCl and excipients, Mixture 1:1 (milled)", "setting": "[1]", "value": "physical complex melting at a lower temperature"}]}
